Source: patent publication US20240307373A1, “METHODS OF USE AND COMPOSITIONS OF BISBENZYLISOQUINOLINES FOR THE TREATMENT OF MALIGNANCIES” (priority 2023, published 2024)
“And” between values parts separate entries of the source, which are not always exact repeats. Identical values can stand only once.

Chains of the proteins cited; added tags and fusions are not shown. Lines headed by an entry give the natural chain unless they say otherwise; changes in a name come on top.
UniProt Q13555: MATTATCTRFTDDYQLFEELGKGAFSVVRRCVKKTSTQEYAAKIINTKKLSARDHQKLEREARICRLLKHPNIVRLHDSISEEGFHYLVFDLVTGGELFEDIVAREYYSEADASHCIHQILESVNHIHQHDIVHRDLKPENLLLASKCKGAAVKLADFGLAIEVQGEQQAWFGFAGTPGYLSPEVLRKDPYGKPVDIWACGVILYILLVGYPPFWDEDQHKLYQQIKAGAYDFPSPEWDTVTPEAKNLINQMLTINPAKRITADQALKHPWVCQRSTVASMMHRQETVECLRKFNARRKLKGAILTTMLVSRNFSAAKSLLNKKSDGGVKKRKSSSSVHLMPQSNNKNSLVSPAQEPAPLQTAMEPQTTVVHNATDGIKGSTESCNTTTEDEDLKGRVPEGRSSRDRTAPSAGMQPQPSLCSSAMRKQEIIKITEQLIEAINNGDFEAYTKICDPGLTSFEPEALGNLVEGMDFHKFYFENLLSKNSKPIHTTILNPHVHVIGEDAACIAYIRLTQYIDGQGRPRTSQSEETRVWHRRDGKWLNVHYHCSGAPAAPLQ

Target: T1, CAMKII gamma (Homo sapiens, UniProt Q13555)
T1 construct: purchased Promega V3531
Assay: CAMKII gamma kinase activity (ADP Glo)
Assay type: biochemical

## CN[C@@H]1C[C@H]2O[C@@](C)([C@@H]1OC)n1c3ccccc3c3c4c(c5c6ccccc6n2c5c31)C(=O)NC4 [Staurosporin, reference compound]
10 nM inhibitor, 10 uM ATP
  mean (units): 0.915 units
  units (duplicate reactions): 0.93 units and 0.9 units
10 nM inhibitor, 50 uM ATP
  mean (units): 7.285 units
100 nM inhibitor, 10 uM ATP
  mean (units): 0.2 units
  units (duplicate reactions): 0.25 units and 0.15 units
100 nM inhibitor, 50 uM ATP
  mean (units): 0.635 units
  units (duplicate reactions): 0.67 units and 0.6 units
